Laboratory results from publication PMC6152727, “Potential of Icariin Metabolites from Epimedium koreanum Nakai as Antidiabetic Therapeutic Agents” (Molecules : A Journal of Synthetic Chemistry and Natural …, 2017).

Experiments:
human recombinant PTP1B [1] = molecular target: T1, human recombinant PTP1B (Homo sapiens, UniProt P18031); test: PTP1B activity assay (pNPP substrate); format: biochemical; conditions: read-out: PTP1B IC50; mean ± SEM of triplicate experiments
T1 construct: purchased Biomol International LP (Plymouth Meeting, PA, USA)
T1 sequence (P18031 1-435): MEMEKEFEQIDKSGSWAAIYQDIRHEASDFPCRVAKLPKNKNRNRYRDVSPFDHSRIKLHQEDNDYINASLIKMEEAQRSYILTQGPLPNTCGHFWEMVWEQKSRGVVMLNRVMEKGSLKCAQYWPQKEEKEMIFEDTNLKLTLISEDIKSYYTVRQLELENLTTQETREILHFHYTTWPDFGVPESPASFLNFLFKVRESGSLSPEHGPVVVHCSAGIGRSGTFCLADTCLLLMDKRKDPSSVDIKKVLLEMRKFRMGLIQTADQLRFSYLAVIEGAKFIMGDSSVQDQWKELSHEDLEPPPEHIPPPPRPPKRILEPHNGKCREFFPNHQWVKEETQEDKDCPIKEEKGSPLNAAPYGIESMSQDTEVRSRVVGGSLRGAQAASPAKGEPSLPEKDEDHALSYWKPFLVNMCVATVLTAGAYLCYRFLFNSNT
Procedure: The abilities of the aerial parts of E. koreanum and their constituents to inhibit human recombinant PTP1B activity were evaluated using pNPP as a substrate. […] After incubation at 37 °C for 20 min in the dark, the reaction was terminated by addition of 10 M NaOH. The amount of p-nitrophenylate produced by enzymatic dephosphorylation of pNPP was determined by measuring the absorbance at 405 nm using a microplate spectrophotometer (Molecular Devices). Non-enzymatic dephosphorylation of pNPP was corrected by measuring the increase in absorbance at 405 nm obtained in the absence of PTP1B. […] The percent inhibition was calculated as {(AC − AS)/AC} × 100, where AC is the absorbance of the control, and AS is the absorbance of the sample. The IC50 is expressed as the mean ± SEM of triplicate experiments.

human recombinant PTP1B [2] = molecular target: T1, human recombinant PTP1B; test: Enzyme kinetics analysis of PTP1B (Lineweaver–Burk and Dixon plots); format: biochemical; conditions: determined by the Dixon plot
Procedure: The inhibition type and inhibition constant (Ki) of the two compounds were determined using Lineweaver–Burk and Dixon plots. Each line of the inhibitors penetrate the same point at the x-intercept, indicating noncompetitive-type inhibition, and the x-axis represent-Kiwhen 1/V = 0. Therefore, icaritin and icariside II are noncompetitive-type inhibitors of PTP1B (Figure 3). The Dixon plot is an established method for determining the enzyme inhibition type and the Ki value for an enzyme-inhibitor complex, where the value of the x-axis indicates Ki.
In order to determine the inhibition mechanism, two complementary kinetics methods were used: Lineweaver–Burk and Dixon plots. The level of enzymatic inhibition at various concentrations of test sample was evaluated by monitoring the effect of different substrate concentrations in Dixon plots (single reciprocal plots). Dixon plots for PTP1B inhibition were obtained in the presence of different concentrations of pNPP. Using Lineweaver–Burk plots (double reciprocal plots), the inhibition modes of the compounds were determined at various concentrations of pNPP with different concentrations of compounds. The enzymatic procedures were the same as for the PTP1B assay methods. The types of inhibition were investigated by interpreting the Dixon plots, in which the value of the x-axis indicates Ki.

icariside II
IC50 (human recombinant PTP1B [1]): 9.94 ± 0.15 µM
Ki (human recombinant PTP1B [2]): 11.7 µM
